System: AVPR1A, AVPR1B, AVPR2
Experiment: Tail suspension test (TST) with vasopressin receptor inhibitors
Type: in vivo
Conditions: inhibitor given with the peptide

For `COc1ccc(S(=O)(=O)N2C(=O)[C@@](c3ccccc3OC)(N3C[C@H](O)C[C@H]3C(=O)N(C)C)c3cc(Cl)ccc32)c(OC)c1` [nelivaptan], the “blocking of […] activity in a tail suspension test” value was “blocks”.

From patent US20250059233A1, “USE OF THERAPEUTIC PEPTIDES” (Viage Therapeutics Inc., priority 2021, published 2025)
